Assays:
MCF-7S8 cells = MCF-7S8 cells (Homo sapiens, UniProt P08069); assay: cell growth/density, mitochondrial activity assay (WST-1), MCF-7S8; assay type: cell-based; settings: for IC50 in MCF-7S8: in presence of IGF-1: first value of the cell, 10 nM IGF-1, cells in words only = effect as reported, 72 hours, no unit in head (SW480 column: M); for IC50 in MCF-7S8: alone: second value of the cell, basal level in 0.5% FCS, unit not given
Protocol: For cell growth/density studies, a mitochondrial activity assay was used, as exemplified by the following. Cells (SW480, MCF-7S8) were propagated in complete medium (DME: F12, 10% FCS (SW 480) or 5% FCS (MCF-7S8, P/S)), trypsinized, and seeded in 96 well plates as 10,000 cells/well in medium with 0.5% FCS. All wells in the periphery were omitted and only filled with medium. […] All treatments are made in triplicates. […] Treatment was continued for 48 hours (SW480 cells) or 72 hours (MCF-7S8 cells) before quantification of the cell density. Media was exchanged each day. Media and peptides were diluted in DMSO. When measuring cell density, the volume of each well was adjusted to […] Pre-diluted WST-1 (1 ml+1.5 ml DME:F12) was added as 25 μL to each well including background samples. Three wells with media only served as background controls. The cells were incubated for 90 min protected against light in an incubator.

Sequences of proteins named here, by UniProt entry; tags and fusion partners are left off. Residues count along the entry.
UniProt P08069, 31-736: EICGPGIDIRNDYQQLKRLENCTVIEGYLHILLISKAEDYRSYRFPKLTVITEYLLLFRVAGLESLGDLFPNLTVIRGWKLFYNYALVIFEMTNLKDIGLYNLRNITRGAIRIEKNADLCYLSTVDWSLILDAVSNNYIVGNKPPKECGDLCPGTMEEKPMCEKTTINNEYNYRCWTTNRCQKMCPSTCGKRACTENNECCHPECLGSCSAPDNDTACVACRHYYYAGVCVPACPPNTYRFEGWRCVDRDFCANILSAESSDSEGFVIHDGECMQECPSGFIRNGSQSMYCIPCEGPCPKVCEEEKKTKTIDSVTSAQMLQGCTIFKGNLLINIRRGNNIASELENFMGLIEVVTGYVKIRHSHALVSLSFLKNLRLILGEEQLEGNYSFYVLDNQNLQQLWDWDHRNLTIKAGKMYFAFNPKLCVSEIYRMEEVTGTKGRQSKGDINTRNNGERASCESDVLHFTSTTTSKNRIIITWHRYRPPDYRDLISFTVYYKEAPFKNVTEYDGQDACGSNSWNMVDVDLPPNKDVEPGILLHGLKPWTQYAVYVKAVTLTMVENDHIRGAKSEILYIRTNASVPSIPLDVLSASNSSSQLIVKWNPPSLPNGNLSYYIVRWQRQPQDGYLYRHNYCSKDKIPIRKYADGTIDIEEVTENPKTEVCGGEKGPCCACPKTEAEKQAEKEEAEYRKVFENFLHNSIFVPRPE
UniProt P08069, 741-1367 limits assumed: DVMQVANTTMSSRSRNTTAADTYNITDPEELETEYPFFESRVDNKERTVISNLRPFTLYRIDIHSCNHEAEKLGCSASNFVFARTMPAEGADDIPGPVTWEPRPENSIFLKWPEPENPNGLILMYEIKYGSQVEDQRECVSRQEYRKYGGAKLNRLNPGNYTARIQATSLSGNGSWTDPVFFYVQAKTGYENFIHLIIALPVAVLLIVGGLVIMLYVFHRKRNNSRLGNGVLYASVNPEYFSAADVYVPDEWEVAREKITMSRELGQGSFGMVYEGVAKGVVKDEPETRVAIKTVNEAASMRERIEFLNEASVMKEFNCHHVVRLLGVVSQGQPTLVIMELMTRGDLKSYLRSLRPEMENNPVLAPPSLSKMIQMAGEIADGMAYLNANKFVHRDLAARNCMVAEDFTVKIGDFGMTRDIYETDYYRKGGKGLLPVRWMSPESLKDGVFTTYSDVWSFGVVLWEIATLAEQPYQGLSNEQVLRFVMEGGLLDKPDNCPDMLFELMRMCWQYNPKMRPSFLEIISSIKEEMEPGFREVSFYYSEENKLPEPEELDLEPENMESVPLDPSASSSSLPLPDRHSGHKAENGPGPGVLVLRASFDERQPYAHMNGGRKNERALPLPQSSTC

Human IGF-1R (HIGF-1R) = target: T1, Human IGF-1R (HIGF-1R) (Homo sapiens, UniProt P08069); assay: IGF-1R affinity study, 125I-IGF-1 competition, PEG precipitation (PEG-assay); assay type: binding; settings: read-out: HIGFIR affinity (PEG-assay)
T1 construct: HIGF-1R was purified from a cell culture of BHK cells stably transfected with IGF-1R cDNA; made in house; host or cells: BHK cells stably transfected with IGF-1R cDNA
Protocol: IGF-1R affinity studies were generally performed as follows. […] HIGF-1R was purified from a cell culture of BHK cells stably transfected with IGF-1R cDNA. The day before harvest cells were moved to serum free conditions and before harvest the cells were rinsed with and ice cold PBS solution. The cells were solubilized in cold lysis buffer (4 ml lysis buffer/1×10^8 cells); vortexed vigorously to lysis in lysis buffer (50 mM Hepes (pH 8.0); 150 mM NaCl; 1% Triton X-100; 2 mM EDTA; 10 μg/mlaprotinin; 0.5 mM PEFABLOC (Roche)); and the lysate centrifuged at 4° C., 20000 rpm, for 15 minutes. The HIGF-1R portion was absorbed to WGA-agarose beads and subjected to chromatography purification (Pharmacia biotech No 17-0760-01) (column washed with 20× column volumes wash buffer −50 mM Hepes (pH 8.0); 150 mM NaCl; 0.1% Triton X-100; 0.5 mM PEFABLOC (Roche)). The HIGF-1R portion was then eluted with 0.5 M n-Acetyl Glycosamine (NAG), 10% Glycerol in elution buffer (50 mM Hepes (pH 8.0); 150 mM NaCl; 0.1% Triton X-100; 0.5 mM PEFABLOC (Roche); 0.5 M n-acetyl glucosamine; 10% glycerol). […] After equilibration for 2 days at 4° C., each sample (200 μl) typically was precipitated by addition of 400 μl 25% PEG 6000, centrifuged, washed with 1 ml 15% PEG 6000, and counted in a gamma-counter. In some cases, human insulin receptor (HIR) affinity for select test peptides was similarly measured.

purified HIGF-1R = target: T2, purified HIGF-1R (Homo sapiens, UniProt P08069); assay: IGF-1R activation kinase assay; assay type: biochemical; settings: IGF-1R kinase activation by 10 nM IGF-1
T2 construct: HIGF-1R was purified from a cell culture of BHK cells stably transfected with IGF-1R cDNA; made in house; host or cells: BHK cells stably transfected with IGF-1R cDNA
Protocol: For determining IGF-1R activation with test peptides, a kinase assay, generally using the following conditions was employed. A solution of each test peptide in kinase buffer (Hepes 100 mM (pH 8.0), MgCl2 8 mM, MnCl2 6 mM, Triton X100 0.1% v/v, BSA 0.2% w/v, 4 μg/ml IRS-1 peptide (Biotin-[…] in PBS+1 mg/ml)) was prepared. Samples were mixed in a microtiter plate in triplicate. 50 μl 2× kinase buffer was added into each well. […] Volume was adjusted to 88 μL, before addition of purified HIGF-1R (2 μl/well). Plates were shaken and incubated for 50 min. at room temperature (RT). DTT and 10 μl/well ATP were added and the wells incubated for 10 min. before stopping the reaction by adding 10 μl stop-buffer (50 mM EDTA (pH 8.0))/well and shaking. The samples were then transferred to streptavidin coated plates and incubated for 1 hour at RT. The coated plates were aspirated and washed 3 times with TBS-T. […] P-tyr Ab-PO (Phosphotyrosine-RC20:HRPO (1:1000) in TBS-T) was added and each plate was incubated for 30 min at RT. The plates were aspirated and washed 3 times with TBS-T. 100 μl TMB-One-substrate (Kem-En-Tec Diagnostics A/S—Denmark) (preheated to RT) was then added and the plates further incubated for approximately 20 min at RT. This reaction was stopped by adding 10 μl H2SO4 and the plates were read in an ELISA-reader at […] within 5-10 min. thereafter. Table 7 includes additional results from such experiments.
[…]. […] […].

[1] = peptide stability (method not described)

## EFGTGYGGDGGGYWSGYEWLAW [Peptide F207]
MCF-7S8 cells
  IC50 in MCF-7S8: in presence of IGF-1: Agonistic
  IC50 in MCF-7S8: alone: no effect
Human IGF-1R (HIGF-1R)
  Kd: > 20000 nM
Purified HIGF-1R
  IC50: 200 nM

## SFYSCLESLVAGPAEKSRGQWEGCR [Peptide F258]
[1]
  stability compared with parent peptide: greater stability

## EGRVDDAFYENFERQLGE [Peptide F213]
MCF-7S8 cells
  IC50 in MCF-7S8: in presence of IGF-1: No effect
  IC50 in MCF-7S8: alone: no effect
Human IGF-1R (HIGF-1R)
  Kd: 800 nM
Purified HIGF-1R
  IC50 in kinase assay (M): No effect

## SFYSCLESLVAGPAEKSRGQWEGCRK [Peptide F259]
MCF-7S8 cells
  IC50 in MCF-7S8: alone: no effect
[1]
  stability compared with parent peptide: greater stability than F250

## SLLSCFESYWQGPAEKSRGQVEGCRK [Peptide F365]
Purified HIGF-1R
  IC50 in kinase assay (M): No effect

From patent US20110039779A1, “IGF-1R BINDING PROTEINS AND ANTAGONISTS” (priority 2007, published 2011)
